Reference: patent publication US7445802B2, “Site-specific in situ generation of allicin using a targeted alliinase delivery system for the treatment of cancers, tumors, infectious diseases and other allicin-sensitive diseases” (Yeda Research and Development Co. Ltd, priority 2000, dated 2008)

Legend:
Format in all cases: cell-based
Conditions in all cases: concentrations of up to 200 μM
N87 cancer cells = experiment: Trypan blue viability of N87 cells
Experimental: (§1) The following cell lines were used: N87 human gastric tumor cell line expressing the ErbB-2 receptors (described by Park et al, 1990); CB-2 cell line, generated by transfection of Chinese hamster ovary (CHO) cells with mammalian expression vectors that direct expression of ErbB-2 (Tzahar et al, 1996); and 32D cell line known to be devoid of the ErbB-2 receptors (described by Pinkas-Kramarski, 1996).
(§2) Viability of living cells was done after staining with Trypan Blue (0.025%) for 10 minutes.
(§3) In parallel, CB-2 cells treated with alliin or allicin were stained with Trypan blue to monitor cell viability.
(§4) Cell cultures of N87 (20,000 cells/well) were grown in 96-well plates and 32D cells were grown in suspension in 12-well plates (200,000 cells/ml). Cells were treated with: none, mAb ErbB-2 or mAb-ErbB-2-alliinase conjugate (total protein 2 μg/20,000 cells) for 1 hour at 37° C.

CB-2 cells = experiment: Trypan blue viability of CB-2 cells
Experimental: as §1, §2, §3, §4

[1] = system: normal human foreskin fibroblasts; experiment: Trypan blue viability of normal human foreskin fibroblasts
Experimental: as §2, §3

Measured: toxic effects

S-allyl-L-cysteine sulfoxide [alliin]
no toxic effects: N87 cancer cells | CB-2 cells | [1]
